Chains of the proteins cited; added tags and fusions are not shown. Lines headed by an entry give the natural chain unless they say otherwise; changes in a name come on top.
UniProt Q01726: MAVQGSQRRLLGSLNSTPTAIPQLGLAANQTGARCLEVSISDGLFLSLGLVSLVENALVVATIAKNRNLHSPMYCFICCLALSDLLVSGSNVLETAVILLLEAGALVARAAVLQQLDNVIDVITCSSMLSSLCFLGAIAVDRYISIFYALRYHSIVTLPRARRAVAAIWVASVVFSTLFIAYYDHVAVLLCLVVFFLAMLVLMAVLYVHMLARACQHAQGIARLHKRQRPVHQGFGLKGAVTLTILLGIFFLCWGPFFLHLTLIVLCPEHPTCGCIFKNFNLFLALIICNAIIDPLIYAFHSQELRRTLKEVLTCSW

In PMC3994986 (Pigment cell & melanoma research, 2012):

Target: human MC1R (Homo sapiens, UniProt Q01726)
Test: pERK
Details: Figure S2A

time after which pERK induction was down-regulated: 5–10 min
Substance: NDP- melanocyte stimulating hormone [NDP-MSH]
